Laboratory results taken from patent US8877779B2 (priority 2007, dated 2014).

Protein sequences, listed by entry. Tags and fused reporters are not part of them. Lines headed by an entry give the natural chain unless they say otherwise; changes in a name come on top.
UniProt P35370: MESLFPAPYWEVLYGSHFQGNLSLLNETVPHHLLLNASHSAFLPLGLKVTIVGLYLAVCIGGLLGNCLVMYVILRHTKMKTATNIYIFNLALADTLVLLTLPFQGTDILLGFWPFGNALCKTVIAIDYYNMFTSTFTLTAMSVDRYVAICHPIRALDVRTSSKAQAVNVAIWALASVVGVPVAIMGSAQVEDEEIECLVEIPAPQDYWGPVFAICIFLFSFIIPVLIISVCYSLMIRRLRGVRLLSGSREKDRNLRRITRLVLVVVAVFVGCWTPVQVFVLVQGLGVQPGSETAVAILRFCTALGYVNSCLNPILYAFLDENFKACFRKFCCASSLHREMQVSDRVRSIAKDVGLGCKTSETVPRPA

Each compound was assayed against ORL-1 receptor (Rattus norvegicus, UniProt P35370) (assay: Food consumption increasing action in rat). Conditions: oral administration in light period, food weight at 1, 2, 4 and 6 hr.

For `CNC(=O)Cn1c(=O)n(C2CCN([C@@H]3CCCc4ccccc43)CC2)c2ccccc21`, which “food consumption in rats” value is on record?
The value was “significantly increase food consumption”.

For `CNC(=O)Cn1c(=O)n(C2CCN(C3CCCc4ccccc43)CC2)c2ccccc21` (stereo not drawn), which “food consumption in rats” value is on record?
Its value is “significantly increase food consumption”.

`CNC(=O)Cn1c(=O)n(C2CCN(C3CCCc4c(C)cccc43)CC2)c2ccccc21` (stereo not drawn) was tested. Which “food consumption in rats” value did it give?
Its value is “significantly increase food consumption”.
